# scFv variants of Ab-14 (heavy chain) against a SARS-CoV-2 spike peptide

Source: Engelhart et al. 2022 (doi:10.1038/s41597-022-01779-4), MIT Lincoln Laboratory and A-Alpha Bio; data file from the FLAb repository.

Binding partner: SARS-CoV-2 spike HR2 peptide, sequence PDVDLGDISGINAS.

Each scFv is VH, a 15-residue (Gly4Ser)3 linker, VL, as in the parent Ab-14, and differs from it in the CDRs of the heavy chain only.
VH: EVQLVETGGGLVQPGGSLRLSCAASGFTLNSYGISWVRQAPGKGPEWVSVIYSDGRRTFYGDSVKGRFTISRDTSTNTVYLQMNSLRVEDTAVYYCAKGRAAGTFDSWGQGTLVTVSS
VL: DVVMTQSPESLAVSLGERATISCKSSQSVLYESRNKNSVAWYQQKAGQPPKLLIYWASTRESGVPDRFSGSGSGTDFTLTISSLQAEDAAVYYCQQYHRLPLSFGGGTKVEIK

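The parent was found by panning a naive human phage display library on the peptide. The library (AAYL49) carries one to three amino acid substitutions per variant, with no insertions or deletions. The scFvs were displayed on barcoded MATa yeast, the peptide on MATalpha yeast. After mating in shaken culture at 30 °C for 16 h, diploids were selected and their barcode pairs sequenced. Read counts were normalised to the haploid input and turned into Kd by a linear fit to BCL2-family pairs of known affinity, for each replicate. Each pool was mated in three replicate cultures.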

The parent's heavy chain CDRs are GFTLNSYGIS, VIYSDGRRTFYGDSVK, GRAAGTFDS; each variant's own CDRs replace them letter for letter.
Numbers give log10(Kd / nM), so 0 is 1 nM and 3 is 1 µM. Smaller is tighter.
A pair that was not seen in that replicate is written "nd"; this usually means weak binding, but a binder can also be missed.

| # | CDR-H1 | CDR-H2 | CDR-H3 | log10 Kd, replicates | empty controls |
|---|---|---|---|---|---|
| 1 | GFTLNSYGIS | VIYSDGSRTFYGDSVK | GRAACTFKS | nd / nd / nd | 0 of 9 |
| 2 | GFLLNSYGDS | VIYSDGRRTFYKDSVK | GRAAGTFDS | nd / nd / 4.34 | 0 of 9 |
| 3 | GFVLNAYGIS | VIYSDGRWTFYGDSVK | GRAAGTFDS | 4.06 / nd / 4.18 | 1 of 9 (3.76) |
| 4 | GFTLNSYGIS | VIYADGTRPFYGDSVK | GRAAGTFDS | nd / nd / nd | 0 of 9 |
| 5 | GLTLNSYIIS | VIYSDGRRTFYGDSVK | GRACGTFDS | 4.25 / 4.20 / nd | 4 of 9 (4.71) |
| 6 | GFTLNVYGIS | VIPEDGRRTFYGDSVK | GRAAGTFDS | nd / nd / nd | 3 of 9 (4.06) |
| 7 | GFTLVSYGIS | RIYSDGRRTFYGDSVK | GRAAGTFCS | nd / nd / nd | 0 of 9 |
| 8 | GFTLNSYGIS | VIYSDGTKTFYGDSVK | GRAAGTFDK | nd / nd / 4.59 | 1 of 9 (3.79) |
| 9 | GFTLNSYGIS | VCYSDGRRTFYIDSVK | GRAARTFDS | 4.39 / 3.74 / 4.18 | 9 of 9 (5.04) |
| 10 | GHTLISYGIS | VIYSDGRRTTYGDSVK | GRAAGTFDS | nd / nd / nd | 0 of 9 |
| 11 | GFTLNSYGIS | VIYSRLRRTFGGDSVK | GRAAGTFDS | 5.63 / 3.50 / nd | 1 of 9 (3.17) |
| 12 | GFTLNSYGIS | VIYSDGRLTFEGDSVK | GTAAGTFDS | 6.03 / 4.88 / 5.92 | 1 of 9 (4.14) |
| 13 | GFTLNSYGIS | VIYSDGRRPFYGDSVK | NRAAGTGDS | 5.54 / nd / nd | 2 of 9 (3.89) |
| 14 | GFTLNDYGIS | VIYSDGRQTFYGDSVK | GRQAGTFDS | 1.35 / 1.45 / 1.30 | 1 of 9 (4.04) |
| 15 | GGTLNSYGIS | VIYSDGRRTFYGCSVK | GRAAGTFDS | nd / nd / nd | 0 of 9 |
| 16 | GFTTNSYGIS | EIYSDGRRTFYGDSVG | GRAAGTFDS | 3.62 / nd / 4.93 | 1 of 9 (2.77) |
| 17 | WFTLNSYGIC | VIYSDGRRTFYGDSVK | GRAAGTFDS | nd / nd / nd | 2 of 9 (4.18) |
| 18 | GFPLNSYGIS | VIYLDGRRTFYGDSVK | IRAAGTFDS | nd / nd / nd | 0 of 9 |
| 19 | GFTLNSYGIS | FIYSKGRRTFYGDSVK | NRAAGTFDS | nd / 3.90 / nd | 0 of 9 |
| 20 | GFTYNSYGIS | VIYSDGRRTFYGDSVK | LQAAGTFDS | 3.97 / nd / 5.16 | 4 of 9 (4.82) |
| 21 | GFTLNSMGIS | VHYSDGRRTFYGDSVK | GRCAGTFDS | 4.23 / nd / 4.51 | 2 of 9 (3.62) |
| 22 | GFTLNSYGIS | PIYSDGRRTFYGDSVK | GRAAGTRDL | nd / 4.75 / nd | 0 of 9 |
| 23 | GGTLNSYGIS | VIYSDTRRTFYGDSVK | GRAAGTFDS | nd / nd / nd | 0 of 9 |
| 24 | GFTGNSYGIS | RIYSDGRRTFYGGSVK | GRAAGTFDS | nd / nd / nd | 1 of 9 (2.99) |
| 25 | GPTLNSYSIS | VIYHDGRRTFYGDSVK | GRAAGTFDS | nd / nd / nd | 0 of 9 |
| 26 | GFTLNSYGIS | VIYSDGRRTFYGDSVK | GPAAGTFRG | nd / nd / 4.57 | 2 of 9 (4.41) |
| 27 | GFTLNSYGIS | VIYSEGTRTFYGDSVK | GRAAETFDS | nd / 4.35 / nd | 2 of 9 (3.85) |
| 28 | GFCLNSYGIS | EIYSDGRRTFYGDSHK | GRAAGTFDS | nd / 3.21 / nd | 0 of 9 |
| 29 | GGTLNSYGIS | VIYSEGRHTFYGDSVK | GRAAGTFDS | nd / nd / 3.77 | 4 of 9 (4.60) |
| 30 | GFTLNSYGIS | VQYSDGRRTFYGDSVN | GHAAGTFDS | nd / nd / nd | 0 of 9 |
| 31 | GFTLNSYDIS | VIYSDGRRYFYGDSVK | GRAAGKFDS | nd / nd / nd | 0 of 9 |
| 32 | GFTLANYGIS | VIYFDGRRTFYGDSVK | GRAAGTFDS | 1.44 / 1.74 / 1.85 | 2 of 9 (3.50) |
| 33 | GFTLNSYGIS | VIYSDGRRTFYGDSVK | GRAAGTFDG | 2.30 / 1.99 / 2.46 | 0 of 9 |
| 34 | GFTLNSYGWI | VIYSDGRRTFYGDSVK | GRAAGTFMS | nd / nd / nd | 1 of 9 (1.17) |
| 35 | GFTLNSYGIS | VIISDGRRTFYGDSLK | GRAAGTFDS | nd / nd / nd | 0 of 9 |
| 36 | GFTLNSYGIS | VIYLDGRITFYGDSVK | GRQAGTFDS | nd / nd / nd | 0 of 9 |
| 37 | GFTLNSYGSS | VIYSDGRRTDYGDSVK | GRAAGTFDS | 5.56 / nd / nd | 2 of 9 (3.23) |
| 38 | VFLLNSYGIS | VIYSDGRRTFYMDSVK | GRAAGTFDS | 3.90 / nd / 4.45 | 3 of 9 (4.47) |
| 39 | GFTLNSYGIS | VIYSDGRRRVYGDSVK | GLAAGTFDS | 1.26 / 1.23 / 1.45 | 2 of 9 (3.68) |
| 40 | GFTLNSYGIS | HIYSDGRRTFYSDSVK | GNAAGTFDS | 3.27 / nd / nd | 0 of 9 |
| 41 | SFTLNSTGIS | VIYSDGRRTFYGDSVN | GRAAGTFDS | nd / nd / nd | 0 of 9 |
| 42 | GFTLNSYGIV | VIYSDGRRTFYGYSVK | GRAAGTTDS | 3.97 / nd / 4.95 | 3 of 9 (3.17) |
| 43 | GFTLNSYGIE | VIYSDGRRTEYGPSVK | GRAAGTFDS | nd / 3.90 / nd | 0 of 9 |
| 44 | GFTLNSYGIR | VIYSDGVRTFYGDSVK | GRAKGTFDS | nd / 2.29 / nd | 0 of 9 |
| 45 | GFTLGSKGIW | VIYSDGRRTFYGDSVK | GRAAGTFDS | nd / nd / nd | 1 of 9 (3.53) |
| 46 | GFTLNSYGIS | VIYSDGGRDNYGDSVK | GRAAGTFDS | nd / nd / 4.15 | 1 of 9 (3.18) |
| 47 | GFSLNSYGIS | VIYSDGRREFYGESVK | GRAAGTFDS | 1.75 / 1.86 / 1.88 | 5 of 9 (4.27) |
| 48 | GFTLNSYGIS | VIYSDGRWTFYGDSMK | GDAAGTFDS | nd / nd / nd | 2 of 9 (4.18) |
| 49 | GFTLGSYGIS | VIYSDGYRTFYGDSVK | GRGAGTFDS | 2.72 / 2.78 / nd | 1 of 9 (3.37) |
| 50 | GFTQMSYGIS | VIYFDGRRTFYGDSVK | GRAAGTFDS | nd / nd / nd | 0 of 9 |
| 51 | GFTLQSYGIS | VIYSDGCRTFYGDSVK | GRAAGTFDL | 1.60 / 1.44 / 1.67 | 0 of 9 |

From the list, the first 6 with no signal in any replicate:

| CDR-H1 | CDR-H2 | CDR-H3 | log10 Kd, replicates | empty controls |
|---|---|---|---|---|
| GFTLNSYGIS | VIYSDGSRTFYGDSVK | GRAACTFKS | nd / nd / nd | 0 of 9 |
| GFTLNSYGIS | VIYADGTRPFYGDSVK | GRAAGTFDS | nd / nd / nd | 0 of 9 |
| GFTLNVYGIS | VIPEDGRRTFYGDSVK | GRAAGTFDS | nd / nd / nd | 3 of 9 (4.06) |
| GFTLVSYGIS | RIYSDGRRTFYGDSVK | GRAAGTFCS | nd / nd / nd | 0 of 9 |
| GHTLISYGIS | VIYSDGRRTTYGDSVK | GRAAGTFDS | nd / nd / nd | 0 of 9 |
| GGTLNSYGIS | VIYSDGRRTFYGCSVK | GRAAGTFDS | nd / nd / nd | 0 of 9 |

Background: pairings of library AAYL49 with three empty control strains gave a value in 15% of cases (median 4.06, 5th percentile 2.83). Values in that range, when seen in few replicates, are hard to tell from nonspecific mating. Also given: how often the same scFv was detected with the empty control strains, with their mean in brackets.